Data published in paper PMC6072017, “Reversible covalent direct thrombin inhibitors” (PLoS ONE, 2018).

Tests used:
human α-thrombin = human α-thrombin (Homo sapiens, UniProt P00734); test: Fibrinogen cleavage (fibrinopeptide A by HPLC) in human platelet-poor plasma; format: biochemical
[1] = target: T1, thrombin/thrombomodulin complex (Homo sapiens, UniProt P00734); test: Protein C activation by thrombin/thrombomodulin; format: biochemical
[2] = target: T1, thrombin/thrombomodulin complex; test: biochemical
thrombin = thrombin (Homo sapiens, UniProt P00734); test: Enzyme inhibition assay, chromogenic substrate S-2238

CC1CNc2c(cccc2S(=O)(=O)N[C@@H](CCCNC(=N)N)C(=O)N2CC[C@@H](C)C[C@@H]2C(=O)O)C1 (stereo partly shown) [Argatroban]
IC50 (human α-thrombin): 340 ± 110 nM | IC50 [1]: 7 ± 2 nM | IC50 [2]: 190 ± 40 nM | IC50 (thrombin): 220 ± 100 nM
